Results from patent US20090215080A1.

Chains of the proteins cited; added tags and fusions are not shown. Residues count along the entry.
UniProt P03952, 20-638 limits assumed: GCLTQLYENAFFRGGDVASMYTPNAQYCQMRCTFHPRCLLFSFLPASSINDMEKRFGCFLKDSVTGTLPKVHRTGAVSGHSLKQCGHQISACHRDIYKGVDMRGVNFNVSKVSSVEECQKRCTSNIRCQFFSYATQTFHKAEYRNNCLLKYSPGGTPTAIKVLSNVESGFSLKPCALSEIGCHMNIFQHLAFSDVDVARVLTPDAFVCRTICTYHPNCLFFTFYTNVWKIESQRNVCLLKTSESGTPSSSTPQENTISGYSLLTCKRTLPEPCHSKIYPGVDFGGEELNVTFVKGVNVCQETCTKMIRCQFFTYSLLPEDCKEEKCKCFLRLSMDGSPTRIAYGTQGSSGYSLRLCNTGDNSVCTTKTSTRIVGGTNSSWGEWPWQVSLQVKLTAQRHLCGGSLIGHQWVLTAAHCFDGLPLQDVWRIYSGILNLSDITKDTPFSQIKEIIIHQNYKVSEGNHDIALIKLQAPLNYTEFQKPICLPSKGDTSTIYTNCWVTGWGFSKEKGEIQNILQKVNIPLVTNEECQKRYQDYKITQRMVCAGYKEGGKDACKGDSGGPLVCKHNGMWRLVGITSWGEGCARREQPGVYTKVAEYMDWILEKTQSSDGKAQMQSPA

The compounds below were run against thrombin (Homo sapiens, UniProt P00734) (assay: Cleavage of R-Arg-pNA chimeric substrates by thrombin (A405 kinetic read)). Conditions: relative to baseline substrate Acetyl-Arg-pNA (Compound 1).

**Q.** For `N#Cc1ccccc1C(=O)N[C@@H](CCCNC(=N)N)C(=O)Nc1ccc([N+](=O)[O-])cc1`, which “Relative Catalytic Efficiency (RCE)” value is on record?
**A.** The value was 0.9.

**Q.** `Cc1ccc(CC(=O)N[C@@H](CCCNC(=N)N)C(=O)Nc2ccc([N+](=O)[O-])cc2)cc1` was tested. Which “Relative Catalytic Efficiency (RCE)” value did it give?
**A.** Its value is 4.0.

**Q.** Which “Relative Catalytic Efficiency (RCE)” value does the source give for `CC(=O)Nc1ccccc1C(=O)N[C@@H](CCCNC(=N)N)C(=O)Nc1ccc([N+](=O)[O-])cc1` here?
**A.** The value was 1.0.

**Q.** How did the “Relative Catalytic Efficiency (RCE)” value turn out when `CC(C(=O)N[C@@H](CCCNC(=N)N)C(=O)Nc1ccc([N+](=O)[O-])cc1)c1ccccc1` (stereo partly drawn) was run?
**A.** The value was 2.2.

**Q.** Which “Relative Catalytic Efficiency (RCE)” value does the source give for `CC(=O)N[C@@H](CCCNC(=N)N)C(=O)Nc1ccc([N+](=O)[O-])cc1` here?
**A.** Its value is 1.0.

**Q.** Which “Relative Catalytic Efficiency (RCE)” value does the source give for `N=C(N)NCCC[C@H](NC(=O)c1ccccc1C(F)(F)F)C(=O)Nc1ccc([N+](=O)[O-])cc1` here?
**A.** Its value is 1.0.

**Q.** `N=C(N)NCCC[C@H](NC(=O)c1ccccc1Cl)C(=O)Nc1ccc([N+](=O)[O-])cc1` was tested. Which “Relative Catalytic Efficiency (RCE)” value did it give?
**A.** The value was 5.5.

Same assay, conditions: versus Acetyl-Arg-pNA baseline

**Q.** `N=C(N)NCCC[C@H](NC(=O)c1ccccc1Cl)C(=O)Nc1ccc([N+](=O)[O-])cc1` was tested. Which “cleavage over baseline (in words)” value did it give?
**A.** Its value is “enhanced cleavage over baseline”.

What follows are compounds tested against plasma kallikrein (Homo sapiens, UniProt P03952) (assay: Cleavage of R-Arg-pNA chimeric substrates by plasma kallikrein (A405 kinetic read)). Conditions: relative to baseline substrate Acetyl-Arg-pNA (Compound 1).

**Q.** With `N=C(N)NCCC[C@H](NC(=O)c1cncc(-c2cccs2)c1)C(=O)Nc1ccc([N+](=O)[O-])cc1` as the compound, how does the “Relative Catalytic Efficiency (RCE)” value read?
**A.** The value was 24.8.

**Q.** For `Cc1ccc(C(=O)N[C@@H](CCCNC(=N)N)C(=O)Nc2ccc([N+](=O)[O-])cc2)cn1`, which “Relative Catalytic Efficiency (RCE)” value is on record?
**A.** The value was 3.9.

**Q.** How did the “Relative Catalytic Efficiency (RCE)” value turn out when `N=C(N)NCCC[C@H](NC(=O)c1cnc2ccccc2c1)C(=O)Nc1ccc([N+](=O)[O-])cc1` was run?
**A.** The value was 45.9.

**Q.** Which “Relative Catalytic Efficiency (RCE)” value does the source give for `N=C(N)NCCC[C@H](NC(=O)c1cncc(-c2ccccc2)c1)C(=O)Nc1ccc([N+](=O)[O-])cc1` here?
**A.** Its value is 29.4.

**Q.** Which “Relative Catalytic Efficiency (RCE)” value does the source give for `N=C(N)NCCC[C@H](NC(=O)c1cccc(Oc2ccccc2)c1)C(=O)Nc1ccc([N+](=O)[O-])cc1` here?
**A.** Its value is 16.70.

**Q.** `N=C(N)NCCC[C@H](NC(=O)c1cccc(-n2cccn2)c1)C(=O)Nc1ccc([N+](=O)[O-])cc1` was tested. Which “Relative Catalytic Efficiency (RCE)” value did it give?
**A.** The value was 115.4.

Same assay, conditions: versus Acetyl-Arg-pNA baseline

**Q.** `N=C(N)NCCC[C@H](NC(=O)c1cccc(-n2cccn2)c1)C(=O)Nc1ccc([N+](=O)[O-])cc1` was tested. Which “enhancement of the baseline cleavage rate” value did it give?
**A.** Its value is > 100 fold.
